PubChem BioAssay AID624267 (The Scripps Research Institute Molecular Screening Center, 2012)
Only a part is listed here, and it is no random draw. Activity calls are given as the source filed them. Cut-off read from the data, not from the text of the source: active = inhibition above about 21%; inactive = the rest.

The chains behind the UniProt entries cited, without tags or fusion partners.
UniProt O43353, whole entry, looked up: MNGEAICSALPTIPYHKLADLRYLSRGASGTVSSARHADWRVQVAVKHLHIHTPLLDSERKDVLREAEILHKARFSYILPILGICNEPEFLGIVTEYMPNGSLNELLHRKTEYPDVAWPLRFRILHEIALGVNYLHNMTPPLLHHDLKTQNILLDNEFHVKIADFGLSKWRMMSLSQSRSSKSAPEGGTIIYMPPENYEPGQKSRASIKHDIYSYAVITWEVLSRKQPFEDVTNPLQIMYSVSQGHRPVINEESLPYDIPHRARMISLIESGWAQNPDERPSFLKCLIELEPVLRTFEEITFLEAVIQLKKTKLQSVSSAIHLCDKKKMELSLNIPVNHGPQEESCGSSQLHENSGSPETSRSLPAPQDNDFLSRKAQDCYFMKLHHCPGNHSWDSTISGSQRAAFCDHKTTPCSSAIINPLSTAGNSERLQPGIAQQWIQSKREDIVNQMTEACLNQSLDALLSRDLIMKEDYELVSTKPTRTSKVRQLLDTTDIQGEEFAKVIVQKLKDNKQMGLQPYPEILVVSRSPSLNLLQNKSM

Target: Receptor-interacting serine/threonine-protein kinase 2 (Homo sapiens) (UniProt O43353)
Test: NOD2-RIPK2 binding disruptors in cells, primary screen, fluorescence, CHO cells, BLA complementation (AID 624267);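 note: 0% = vehicle only and 100% = reference blocker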
Settings: CHO BLA complementation NOD2-RIPK2, CCF4 ratio; at 4.98 µM; hits give high values

Row | SMILES | inhibition
1 | CC(C)NC(=O)NP(=O)(Oc1ccccc1)Oc1ccccc1 | inactive: -4.67%
2 | CCN(CC)C(=S)SC(NC=O)C(Cl)(Cl)Cl (centres undefined) | inactive: -3.9%
3 | O=C(OC1CN2CCC1CC2)c1cccc2[nH]cnc12 (centres undefined) | inactive: -2.32%
4 | O=[N+]([O-])c1cc([N+](=O)[O-])c(-c2ccn[nH]2)s1 | inactive: -5.85%
5 | ClCCSc1nnc(-c2cccnc2)o1 | inactive: -4.4%
6 | COC(=O)C1(C)COP(=O)(N2CCCCCC2)OC1 (centres undefined) | inactive: -3.41%
7 | CC(C)c1ccc(OP(=O)(Nc2ccccn2)Oc2ccccc2F)cc1 (centres undefined) | inactive: -29.6%
8 | [N-]=[N+]=NC1CCCCC1NC(=O)c1cc([N+](=O)[O-])cc([N+](=O)[O-])c1 (centres undefined) | inactive: -9.42%
9 | Cc1ccc(OP(=O)(Nc2ccc([N+](=O)[O-])cn2)Oc2ccc(C)cc2)cc1 | inactive: 0.49%
10 | Cc1ccc2nc3c(c(C)c2c1)CC(C(Cl)Cl)S3 (centres undefined) | inactive: -1.45%
11 | C[As](=O)(O)c1cccc(C(=O)O)c1 | inactive: 9.59%
12 | O=[As](O)(c1ccc(O)cc1)c1ccccc1O | inactive: 5.7%
13 | O=[N+]([O-])c1ccc(-c2cc([N+](=O)[O-])c(O)c([N+](=O)[O-])c2)cc1 | inactive: -58.9%
14 | COc1cc(C(=O)NCC2(N3CCOCC3)CCCCC2)ccc1OCC(C)C | inactive: -13.2%
15 | O=[N+]([O-])c1cc(Oc2ccc([N+](=O)[O-])cc2C(F)(F)F)cc([N+](=O)[O-])c1 | inactive: -0.68%
16 | COc1ccc(N/C(=N/P(=O)(N2CCOCC2)N2CCOCC2)N2CCOCC2)cc1 | inactive: -3.87%
17 | O=P1(N(CCCl)CCCl)OCCCN1CCCl (centres undefined) | inactive: -6.09%
18 | O=P1(N(CCCl)CCCl)Nc2ccccc2N1 | inactive: -0.4%
19 | COc1ccc2nc(NP(=O)(c3ccccc3)c3ccccc3)sc2c1 | inactive: 5.91%
20 | COc1cc(I)ccc1[As](=O)(O)O | inactive: 0.8%
21 | Cc1c2c(nc3ccccc13)SC(C(Cl)Cl)C2 (centres undefined) | inactive: -1.27%
22 | O=C(OC1CN2CCC1CC2)C12CC3CC(CC(C3)C1)C2 (centres undefined) | inactive: -2.12%
23 | Cc1cc(=O)[nH]c(N[N+](=O)[O-])n1 | inactive: -1.77%
24 | CCC(C)N(CC(C)C)C(=S)SC(NC(C)=O)C(Cl)(Cl)Cl (centres undefined) | inactive: -1.91%
25 | O=C(OC1CN2CCC1CC2)c1cccc([N+](=O)[O-])c1 (centres undefined) | inactive: -3.11%

Row | SMILES | inhibition
26 | CSc1ccc(Nc2c([N+](=O)[O-])cc([N+](=O)[O-])cc2[N+](=O)[O-])cc1 | inactive: 3.63%
27 | CCOC(=O)c1ccc(NC(=O)C(C)(CCl)SC)cc1 (centres undefined) | inactive: 5.83%
28 | O=C(O)C(=O)c1ccc(N(CCCl)CCCl)cc1 | inactive: 0.51%
29 | O=C(COc1ccccc1)OC1CN2CCC1CC2 (centres undefined) | inactive: -8.78%
30 | O=C(Nc1ccncc1[N+](=O)[O-])c1ccc([N+](=O)[O-])cc1[N+](=O)[O-] | inactive: 2.79%
31 | COP1(=S)c2c(C)nn(CCC#N)c2N=C(c2ccc(F)cc2)N1C (centres undefined) | inactive: -7.33%
32 | COC(=O)C1(C)COP(=O)(N2CCCC2)OC1 (centres undefined) | inactive: -6.95%
33 | O=P(Nc1ccccn1)(c1cccc2ccccc12)c1cccc2ccccc12 | inactive: -4.35%
34 | Cc1cc(SC(NC=O)C(Cl)(Cl)Cl)ncn1 (centres undefined) | inactive: -2.95%
35 | O=[N+]([O-])c1ccc(Nc2ccc(Oc3ccc([N+](=O)[O-])cc3[N+](=O)[O-])cc2)c([N+](=O)[O-])c1 | inactive: 1.93%
36 | CCOC(=O)Nc1cccc([As](=O)(O)O)c1 | inactive: -6.05%
37 | COP(=O)(OC)N1CC1c1ccccc1 (centres undefined) | inactive: 4.76%
38 | CCCCOc1ccc(C(=O)NCC2(N3CCCCC3)CCCCC2)cc1OC | inactive: 1.36%
39 | Cc1cc(SC(NC(=O)c2ccccc2)C(Cl)(Cl)Cl)nc(C(C)C)n1 (centres undefined) | inactive: -5.15%
40 | CCOC(=O)Nc1ccc([As](=O)(O)O)c(O)c1 | inactive: 3.16%
41 | O=C(O)C(O)c1ccc(N(CCCl)CCCl)cc1 (centres undefined) | inactive: 0.21%
42 | CC1CCNP(=O)(N(CCCl)CCCl)O1 (centres undefined) | inactive: -1.02%
43 | Nc1cccc([As](=O)(O)c2ccccc2)c1 | inactive: -2.99%
44 | Cc1ccc(OCC(=O)OC2CN3CCC2CC3)cc1 (centres undefined) | inactive: 0.88%
45 | O=[As](O)(c1cccs1)c1cccs1 | inactive: -6.59%
46 | O=P1(Nc2ccc(Br)cn2)COc2ccccc2OC1 | inactive: -8.02%
47 | NS(=O)(=O)c1cccc(NC(=O)COC(=O)C(O)(c2ccccc2)c2ccccc2)c1 | inactive: 2.35%
48 | Cc1ccc(S(=O)(=O)N(CCCN)CCCc2c(C)nc(N)[nH]c2=O)cc1 | inactive: -13.2%
49 | O=P1(Nc2ncccn2)COc2ccccc2OC1 | inactive: -1.86%
50 | CN(C)C1(CNC(=O)c2ccc(S(C)(=O)=O)cc2)CCCCC1 | inactive: -7.74%

Row | SMILES | inhibition
51 | O=C(/C=C/c1ccccc1)OC1CN2CCC1CC2 (centres undefined) | inactive: 5.92%
52 | CCCC1OP(=O)(Nc2ccccc2)OCC1CC (centres undefined) | inactive: -10.9%
53 | Cc1nn(-c2ccccc2)c2c1P(=O)(N1CCOCC1)N(C)C(c1ccccc1)=N2 (centres undefined) | inactive: 1.65%
54 | CC1CCC(C(C)C)C(OP(=O)(Nc2ccccn2)c2ccccc2)C1 (centres undefined) | inactive: 5.11%
55 | Cc1ccc(C(=O)OC2CN3CCC2CC3)cc1 (centres undefined) | inactive: -1.87%
56 | CC(C)/C=N\N=C(\N)N[N+](=O)[O-] | inactive: 4.89%
57 | CC1(CBr)Cn2c(nc3ccccc3c2=O)S1 (centres undefined) | inactive: -4.42%
58 | COc1ccccc1CNC(=O)COC(=O)C(O)(c1ccccc1)c1ccccc1 | inactive: 10.6%
59 | O=P1(N(CCCl)CCCl)NCCC(C(F)(F)F)O1 (centres undefined) | inactive: 7.31%
60 | Clc1n[nH]nc1-c1nn[nH][15n]1 | inactive: 2.84%
61 | CC(C)(C)C(=O)NC(Sc1ncccn1)C(Cl)(Cl)Cl (centres undefined) | inactive: 7.16%
62 | O=P1(Nc2ccccn2)COc2ccccc2OC1 | inactive: -10.6%
63 | CCC1=CC2Cc3nc4ccc(Cl)cc4c(N)c3C(C1)C2 (centres undefined) | inactive: 1.48%
64 | CCOP(=O)(NC(=NC(C)c1ccccc1)NC(C)c1ccccc1)OCC (centres undefined) | inactive: -12.3%
65 | CCOP(=O)(Nc1ccc(C)cn1)OCC | inactive: -8.4%
66 | CN(CCCl)Cc1cc(Cl)c(NC2=NCCN2)c(Cl)c1 | inactive: 0.34%
67 | COc1cc(C2NCCC3(OCCO3)C2(C)C)cc(OC)c1OC (centres undefined) | inactive: -12.3%
68 | CCOP(=O)(Nc1cccc2ccccc12)OCC | inactive: -6.06%
69 | Cc1ccc(NCCc2c([N+](=O)[O-])cc([N+](=O)[O-])cc2[N+](=O)[O-])cc1 | inactive: 4.05%
70 | Nc1cccc2c([As](=O)(O)O)cccc12 | inactive: 16.8%
71 | CCCOP(=S)(Nc1nc(N)cc(=O)[nH]1)OCCC | inactive: 2.51%
72 | Cc1cccc(OCC(=O)OC2CN3CCC2CC3)c1 (centres undefined) | inactive: -2.71%
73 | O=[As](O)(c1cccc(O)c1)c1cccc(O)c1 | inactive: 5.44%
74 | O=C(OC1CN2CCC1CC2)c1ccc(Cl)cc1 (centres undefined) | inactive: 1.54%
75 | O=[As](O)(O)c1cccnc1 | inactive: 9.62%

Row | SMILES | inhibition
76 | COc1cc(C(=O)NCC2(N3CCOCC3)CCCCC2)cc(Cl)c1OC(C)C | inactive: -2.8%
77 | CS(=O)(=O)c1ccc(Cl)c(NC(=O)COC(=O)C(O)(c2ccccc2)c2ccccc2)c1 | inactive: -17.2%
78 | N#CCCN(C(=O)COC(=O)C(O)(c1ccccc1)c1ccccc1)c1ccc(F)cc1 | inactive: 0.58%
79 | CCOP1(=S)c2c(C)nn(CCC#N)c2N=C(c2ccc(F)cc2)N1C (centres undefined) | inactive: 7.37%
80 | CN(C(=O)Cc1ccccc1)[C@@H]1CC[C@]2(CCCO2)C[C@H]1N1CCCC1 | inactive: -16.2%
81 | O=[N+]([O-])c1ccc2c(c1)nnn2O | inactive: -10.8%
82 | CN(C)C(=O)c1cc([N+](=O)[O-])cc2c1-c1c(cc([N+](=O)[O-])cc1[N+](=O)[O-])C2=O | active: 34.3%
83 | CN(C(=O)Cc1ccc(Cl)c(Cl)c1)[C@H]1CC[C@@]2(CCCO2)C[C@@H]1N1CCCC1 | inactive: -7.07%
84 | NC(=O)Nc1ccc([As](=O)(O)O)cc1 | inactive: 5.59%
85 | Nc1ccccc1[As](=O)(O)c1ccccc1 | inactive: 3.16%
86 | O=C(O)COc1ccc([As](=O)(O)O)cc1[N+](=O)[O-] | inactive: -7.58%
87 | CCOP1(=S)c2c(C)nn(CCC#N)c2N=C(c2ccccc2F)N1C (centres undefined) | inactive: 11.1%
88 | O=P(Nc1nccs1)(Oc1ccccc1)Oc1ccccc1 | inactive: 3.31%
89 | O=P(Nc1nccs1)(c1ccccc1)c1nc2ccccc2s1 (centres undefined) | inactive: 17.8%
90 | CS(=O)(=O)c1cc([N+](=O)[O-])c2no[n+]([O-])c2c1 | inactive: 11.2%
91 | CC(NC(=O)COC(=O)C(O)(c1ccccc1)c1ccccc1)c1ccccc1 (centres undefined) | inactive: 7.5%
92 | Cc1ccccc1OP(=O)(Nc1ccccn1)Oc1ccccc1C | inactive: -8.47%
93 | O=c1c2cc([N+](=O)[O-])ccc2[nH]c2c([N+](=O)[O-])cc([N+](=O)[O-])cc12 | inactive: -2%
94 | CN(C)C(=O)Oc1noc2ccccc12 | inactive: 5.92%
95 | O=C(OC1CN2CCC1CC2)c1ccccc1 (centres undefined) | inactive: -3.84%
96 | CCC(=O)N1C2C3N(C(=O)CC)C1C1N(C(=O)CC)C(C(N1C(=O)CC)N3C(=O)CC)N2C(=O)CC | inactive: -2.08%
97 | COC(=O)c1cc2c(s1)N=C(c1ccccc1)N(C)P2(=O)N1CCOCC1 (centres undefined) | inactive: -2.84%
98 | CC(=O)NC(SC(=S)N(CC(C)C)CC(C)C)C(Cl)(Cl)Cl (centres undefined) | inactive: 1.47%
99 | Cc1ccc(OP(=O)(Nc2ccccn2)Oc2ccc(C)cc2)cc1 | inactive: -4.4%
